Chains of the proteins cited; added tags and fusions are not shown. Residues count along the entry.
UniProt P43220, 24-463: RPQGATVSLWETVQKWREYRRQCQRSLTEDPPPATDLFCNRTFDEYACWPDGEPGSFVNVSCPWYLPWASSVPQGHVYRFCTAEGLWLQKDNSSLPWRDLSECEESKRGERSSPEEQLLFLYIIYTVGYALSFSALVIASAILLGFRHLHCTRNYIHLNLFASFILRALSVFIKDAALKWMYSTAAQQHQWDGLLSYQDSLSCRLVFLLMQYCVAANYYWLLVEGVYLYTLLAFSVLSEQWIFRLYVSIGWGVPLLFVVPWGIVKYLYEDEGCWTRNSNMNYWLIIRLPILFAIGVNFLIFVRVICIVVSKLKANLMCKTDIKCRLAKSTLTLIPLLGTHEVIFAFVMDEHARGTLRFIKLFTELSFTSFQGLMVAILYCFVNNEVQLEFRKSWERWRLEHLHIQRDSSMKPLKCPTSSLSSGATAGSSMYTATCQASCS

According to patent US20250304643A1, “PEPTIDE DUAL AGONISTS OF GIPR AND GLP2R” (BAINAN BIOTECH APS, priority 2021, published 2025):

Assays:
Format in all cases: cell-based
human GLP-2R = biological target: T1, human GLP-2R (Homo sapiens, UniProt O95838); assay: HitHunter cAMP assay in transiently transfected COS-7 cells, human GLP-2R;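 note: cells kept 30 min at 37 °C in buffer with 1 mM IBMX, then given ligand for another 30 min at 37 °C before cAMP readout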
T1 construct: host or cells: COS-7
T1 sequence (O95838 1-553): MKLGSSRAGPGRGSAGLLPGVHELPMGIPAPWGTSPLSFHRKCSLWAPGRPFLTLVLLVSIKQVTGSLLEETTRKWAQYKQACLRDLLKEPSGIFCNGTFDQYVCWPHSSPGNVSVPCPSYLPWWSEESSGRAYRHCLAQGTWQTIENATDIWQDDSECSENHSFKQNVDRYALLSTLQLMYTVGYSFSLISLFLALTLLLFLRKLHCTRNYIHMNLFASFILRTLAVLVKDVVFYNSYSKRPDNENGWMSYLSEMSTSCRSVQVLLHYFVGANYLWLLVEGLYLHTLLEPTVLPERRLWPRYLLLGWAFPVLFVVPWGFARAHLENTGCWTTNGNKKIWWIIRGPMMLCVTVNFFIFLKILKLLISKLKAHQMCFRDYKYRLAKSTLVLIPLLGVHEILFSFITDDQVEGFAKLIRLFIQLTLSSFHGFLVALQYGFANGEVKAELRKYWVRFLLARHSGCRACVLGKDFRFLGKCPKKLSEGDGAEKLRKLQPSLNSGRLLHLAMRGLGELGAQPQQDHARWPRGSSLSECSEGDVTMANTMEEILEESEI

human GLP-1R = biological target: T2, human GLP-1R (Homo sapiens, UniProt P43220); assay: HitHunter cAMP assay in transiently transfected COS-7 cells, human GLP-1R
T2 construct: host or cells: COS-7
Method: (§1) The next day the assay was initiated by washing with HEPES buffered saline (HBS) and followed by an incubation step with assay buffer (HBS added 1 mM isobutyl-1-methylxanthine (IBMX)) for 30 min at 37° C. The ligands were then added and incubated for an additional 30 min at 37° C. After ligand incubation, the HitHunter® CAMP assay (Eurofins DiscoverX, Fremont, […] USA) was carried out according to the manufacturer's instructions. Luminescence was measured by PerkinElmer™ EnVision 2014 Multilabel Reader (PerkinElmer, Waltham, MA). The potencies (EC50 values) were determined by nonlinear regression using GraphPad Prism 9 (San Diego, California, USA). Sigmoid curves were fitted logistically. The efficacies (Emax values) were determined by normalization to the highest concentration applied of the endogenous ligand for each receptor.

human GIPR = biological target: T3, human GIPR (Homo sapiens, UniProt P48546); set-up: host or cells: COS-7
T3 sequence (P48546 22-466): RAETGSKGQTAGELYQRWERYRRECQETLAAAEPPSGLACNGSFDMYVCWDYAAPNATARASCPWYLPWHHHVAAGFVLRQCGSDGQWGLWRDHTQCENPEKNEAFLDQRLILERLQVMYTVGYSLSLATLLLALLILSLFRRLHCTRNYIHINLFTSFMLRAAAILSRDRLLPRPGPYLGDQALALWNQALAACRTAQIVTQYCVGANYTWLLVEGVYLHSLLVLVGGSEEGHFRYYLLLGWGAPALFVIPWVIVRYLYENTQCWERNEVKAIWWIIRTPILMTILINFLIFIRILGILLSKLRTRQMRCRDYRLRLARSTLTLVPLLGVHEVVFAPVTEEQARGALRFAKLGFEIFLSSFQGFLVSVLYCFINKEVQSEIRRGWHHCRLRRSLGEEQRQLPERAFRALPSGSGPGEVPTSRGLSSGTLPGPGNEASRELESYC
Method: as §1

[1] = cAMP, COS-7 cells expressing human GLP-2R, Table 2
[2] = cAMP, COS-7 cells expressing human GLP-1R, Table 3
[3] = cAMP, COS-7 cells expressing human GIPR, Table 2
[4] = comparative peptides, human GLP-2R, Table B
[5] = comparative peptides, human GLP-1R, Table C
[6] = comparative peptides, human GIPR, Table 4A

Substance | EC50 (human GLP-2R; [1]) | logEC50 GLP-2R (human GLP-2R; [1]) | logEC50 GLP-1R (human GLP-1R; [2]) | EC50 (human GIPR; [3]) | PEC50 GIPR (human GIPR; [3]) | EC50 (human GLP-2R; [4]) | logEC50 GLP-2R (human GLP-2R; [4]) | EC50 (human GLP-1R; [5]) | logEC50 GLP-1R (human GLP-1R; [5]) | EC50 (human GIPR; [6]) | pEC50 GIPR (human GIPR; [6]) | EC50 (human GLP-1R; [2]) | Efficacy GIPR (human GIPR; Emax normalized to highest concentration of endogenous ligand, Table 2)
(C16-diacid)H-Aib-EGTFISDYST-Aib-LDNLAAKDFINWLIQTKITKNDWKHNITQ-OH [Compound no. 43] | 2.8 nM | 8.6 | no activation | – | – | – | – | – | – | – | – | – | –
(C16-diacid)H-Aib-DGTFISDYST-Aib-LDALAARDFIEWLIQTKITK-OH [Compound no. 20] | 1.3 nM | 8.9 | no activation | 0.858 nM | 9.1 | – | – | – | – | – | – | – | –
(C16)HADGTFISDYSTILDNLAARDFIEWLIQTKITKNDWKHNITQ [Compound no. 50] | 10 nM | 8.0 | no activation | 0.891 nM | 9.1 | – | – | – | – | – | – | – | –
H-Aib-EG-K(γGlu-C16)-FISDYST-Aib-LDNLAARDFINWLIQTKITK-OH [Compound no. 27] | 7.9 nM | 8.1 | no activation | 1.78 nM | 8.8 | – | – | – | – | – | – | – | –
HADGTFISDYSTILDK(γGlu-C18-diacid) LAARDFINWLIQTKGKK [Compound no. 64, reference compound] | – | – | – | – | – | 1.5 nM | 8.8 | 0.54 nM | 9.3 | 0.074 nM | 10.1 | – | –
H-Aib-DG-K(γGlu- γGlu-C10)-FISDYSTILDNLAARDFINWLIQTKITK-OH [Compound no. 26] | 6.3 nM | 8.2 | no activation | 3.16 nM | 8.5 | – | – | – | – | – | – | – | –
HADGTFISDYSTILDKLAARDFINWLIQTKITK(C16) [Compound no. 58] | – | – | – | 1.41 nM | 8.9 | – | – | – | – | – | – | – | –
(C16)HADGTFISDYSTILDNLAARDFINWLIQTKIT [Compound no. 2] | 50.1 nM | 7.3 | no activation | 0.464 nM | 9.3 | – | – | – | – | – | – | – | –
(C16)H-Aib-DGTFISDYST-Aib-LDNLAARDFINWLIQTKITK-OH [Compound no. 5] | 1.1 nM | 9.0 | 7.8 | 0.355 nM | 9.5 | – | – | – | – | – | – | 15.8 nM | –
H-Aib-DGTFISDYS-K(γGlu-C16)-ILDNLAARDFINWLIQTKITK-OH [Compound no. 12] | 0.9 nM | 9.1 | – | 0.251 nM | 9.6 | – | – | – | – | – | – | – | –
HADGTFISDYSTAibLDNLAARDFINWLIQTKGKKK(γGlu-C18-diacid) [Compound no. 61, reference compound] | – | – | – | – | – | 20 nM | 7.7 | 7.08 nM | 8.2 | 0.355 nM | 9.5 | – | –
H-Aib-DGTF-K(γGlu-C16)-SDYSTILDNLAARDFINWLIQTKITK-OH [Compound no. 10] | 31.6 nM | 7.5 | 7.0 | 1.26 nM | 8.9 | – | – | – | – | – | – | 100 nM | –
HADGTFISDYSTAibLDK(γGlu-C18-diacid) LAARDFINWLIQTKGKK [Compound no. 62, reference compound] | – | – | – | – | – | 1.1 nM | 9.0 | 1.26 nM | 8.9 | 0.147 nM | 9.8 | – | –
H-Aib-DGTFISDY-K(γGlu-C16)-TILDNLAARDFINWLIETKITK-OH [Compound no. 32] | 10 nM | 8.0 | no activation | 0.341 nM | 9.5 | – | – | – | – | – | – | – | –
(C10-diacid)H-Aib-DGTFISDYST-Aib-LDNLAARDFINWLIQTKITK-OH [Compound no. 18] | – | – | no activation | 4.22 nM | 8.4 | – | – | – | – | – | – | – | –
(C16-diacid)HADGTFISDYSTAibLDNLAARDFINWLIQTKITKNDWKHNITQ [Compound no. 39] | 1 nM | 9.0 | no activation | 1.78 nM | 8.8 | – | – | – | – | – | – | – | –

Substance | EC50 (human GLP-2R; [1]) | logEC50 GLP-2R (human GLP-2R; [1]) | logEC50 GLP-1R (human GLP-1R; [2]) | EC50 (human GIPR; [3]) | PEC50 GIPR (human GIPR; [3]) | EC50 (human GLP-2R; [4]) | logEC50 GLP-2R (human GLP-2R; [4]) | EC50 (human GLP-1R; [5]) | logEC50 GLP-1R (human GLP-1R; [5]) | EC50 (human GIPR; [6]) | pEC50 GIPR (human GIPR; [6]) | EC50 (human GLP-1R; [2]) | Efficacy GIPR (human GIPR; Emax normalized to highest concentration of endogenous ligand, Table 2)
Ac-H-Aib-DGTFISDY-K(γGlu-C16)-T-Aib-LDNLAARDFINWLIQTKITK-OH [Compound no. 34] | 14.1 nM | 7.9 | no activation | 10 nM | 8.0 | – | – | – | – | – | – | – | –
(C16)H-Aib-DGTFISDYSTILDNLAARDFIEWLIQTKITK-OH [Compound no. 7] | 4 nM | 8.4 | 7.4 | 0.891 nM | 9.1 | – | – | – | – | – | – | 39.8 nM | –
(C16)HADGTFISDYSTILDNLAARDFINWLIQTKITD [Compound no. 1] | 27.1 nM | 7.6 | no activation | 0.584 nM | 9.2 | – | – | – | – | – | – | – | –
H-Aib-DGTFISDY-K(γGlu-C16)-T-Aib-LDNLAARDFINWLIQTKITK-OH [Compound no. 29] | 2.3 nM | 8.6 | no activation | 0.926 nM | 9.0 | – | – | – | – | – | – | – | –
(C16-diacid)H-Aib-DGTFISDYST-Aib-LDNLAARDFINWLIQTKITK-OH [Compound no. 17] | 1.7 nM | 8.8 | no activation | 0.681 nM | 9.2 | – | – | – | – | – | – | – | –
H-Aib-DG-K(γGlu- γGlu-C16)-FISDYST-Aib-LDNLAARDFINWLIQTKITK-OH [Compound no. 28] | 1.6 nM | 8.8 | – | 1.58 nM | 8.8 | – | – | – | – | – | – | – | –
(C16)H-Aib-DGTFISDYSTILD-Aib-LAARDFINWLIQTKITK-OH [Compound no. 6] | 3.2 nM | 8.5 | 7.4 | 0.794 nM | 9.1 | – | – | – | – | – | – | 39.8 nM | –
(C16-diacid)H-Aib-DGTFISDYST-Aib-LDNLAAKDFINWLIQTKITKNDWKHNITQ-OH [Compound no. 42] | 2.8 nM | 8.6 | no activation | 0.891 nM | 9.1 | – | – | – | – | – | – | – | 91
(C16-diacid)H-Aib-EGTFISDYST-Aib-LDKLAARDFINWLIQTKITK-OH [Compound no. 21] | 7.9 nM | 8.1 | – | 0.631 nM | 9.2 | – | – | – | – | – | – | – | –
(C16)HADGTFISDYSTILDAibLAARDFINWLIQTKITKNDWKHNITQ [Compound no. 16] | 15.8 nM | 7.8 | – | 0.447 nM | 9.4 | – | – | – | – | – | – | – | –
HADGTFISDYSTILDNLAARDFINWLIQTKGKK(γGlu-C18-diacid) [Compound no. 60, reference compound] | – | – | – | – | – | 70.8 nM | 7.2 | 4.47 nM | 8.4 | – | – | – | –
(C16)HADGTFISDYSTILDNLAAKDFINWLIQTKITK [Compound no. 45] | – | – | no activation | 2.71 nM | 8.6 | – | – | – | – | – | – | – | –
(C16-diacid)H-Aib-EGTFISDYST-Aib-LDALAARDFINWLIQTKITKNDWKHNITQ-OH [Compound no. 41] | 1.8 nM | 8.8 | – | 0.708 nM | 9.2 | – | – | – | – | – | – | – | –
H-Aib-DGTFISDY-K(γGlu-C10)-T-Aib-LDNLAARDFINWLIQTKITD-OH [Compound no. 30] | 2.8 nM | 8.6 | no activation | – | – | – | – | – | – | – | – | – | –
HADGTFISDYSTILDKLAARDFINWLIQTK(C16)ITK [Compound no. 57] | – | – | 7.0 | 12.6 nM | 7.9 | – | – | – | – | – | – | 100 nM | –

Where two headings read alike, the source gives them in different places.
